Laboratory results as given in patent US20120258873A1, “REDUCTION OF 2,3-DIHYDROXY-2-METHYL BUTYRATE (DHMB) IN BUTANOL PRODUCTION” (priority 2011, published 2012).

Amino acid sequences for entries named in this document (tags omitted).
UniProt Q02138, whole entry A270E/T303I/K323Q: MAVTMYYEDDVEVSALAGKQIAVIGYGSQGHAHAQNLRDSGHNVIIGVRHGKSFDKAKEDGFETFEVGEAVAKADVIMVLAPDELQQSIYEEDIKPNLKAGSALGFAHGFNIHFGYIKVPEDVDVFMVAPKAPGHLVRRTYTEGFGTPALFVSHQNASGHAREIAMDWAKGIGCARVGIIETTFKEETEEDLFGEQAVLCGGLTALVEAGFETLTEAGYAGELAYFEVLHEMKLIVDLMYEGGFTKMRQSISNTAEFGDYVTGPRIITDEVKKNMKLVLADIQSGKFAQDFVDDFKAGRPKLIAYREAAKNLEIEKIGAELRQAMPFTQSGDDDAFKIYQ

Biological target: KARI from Lactococcus lactis (Lactococcus lactis subsp. lactis, UniProt Q02138, A270E/K323Q/T303I)
Test: biochemical

Compound	Ki [µM]
C[C@H](O)[C@](C)(O)C(=O)O [Fast DHMB, 2,3-dihydroxy-2-methyl butyrate]	2800
C[C@@H](O)[C@](C)(O)C(=O)O [Slow DHMB, 2,3-dihydroxy-2-methyl butyrate]	2300
